# Laboratory results taken from PMC7756140.
# Amino acid sequences for entries named in this document (tags omitted). Residues count along the entry.
# UniProt P48061, 22-89: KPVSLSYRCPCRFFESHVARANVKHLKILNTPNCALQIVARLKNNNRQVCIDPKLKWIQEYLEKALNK
# Key:
# Assay in all cases: MST
# CXCR4^QTY (E. coli) = molecular target: CXCR4^QTY (E. coli)
# [1] = molecular target: CXCR4^QTY – SZ146a (E. coli)
# [2] = molecular target: CXCR4^QTY – SZ158a (E. coli)
substance,measurement,setting,value
CXCL12 (from UniProt P48061-2 22-89) (ligand),Kd,CXCR4^QTY (E. coli),17.3 nM
same,Kd,[1],301 nM
same,Kd,[2],247 nM
